The assay relates to Substance-P receptor (Oryctolagus cuniculus). The assay can be described thus: Tested for the binding affinity towards tachykinin receptor 1 (NK1) in rabbit pulmonary artery tissue.
With `COc1ccc(C2CCN(CC[C@H](CN(C)C(=O)c3cc(C#N)cc4ccccc34)c3ccc(Cl)c(Cl)c3)CC2)c([S@+](C)[O-])c1`, the pKB was determined as 8.2.

Take `CN(C[C@@H](CCN1CCC(c2ccccc2[S@+](C)[O-])CC1)c1ccc(Cl)c(Cl)c1)C(=O)c1cc(C#N)cc2ccccc12`: the pKB came out at 8.98.

`CN(C[C@@H](CCN1CCC(c2ccccc2[S+](C)[O-])CC1)c1ccc(Cl)c(Cl)c1)C(=O)c1cc(C#N)cc2ccccc12` (mixture of isomers) registered a pKB of 8.43.
